# Measurements taken from ChEMBL document CHEMBL4251577, “Synthesis and antiproliferative activity of pyrrolo[2,3-b]pyridine derivatives bearing the 1,8-naphthyridin-2-one moiety” (Eur J Med Chem, 2018).
# Columns and labels:
# Homo sapiens [1] = species: Homo sapiens; assay: Selectivity index, ratio of IC50 for VEGFR2 (unknown origin) to IC50 for cMET (unknown origin)
# Homo sapiens [2] = species: Homo sapiens; assay: Selectivity index, ratio of IC50 for cKIT (unknown origin) to IC50 for cMET (unknown origin)
# Homo sapiens [3] = species: Homo sapiens; assay: Selectivity index, ratio of IC50 for EGFR (unknown origin) to IC50 for cMET (unknown origin)
compound,measurement,setting,value
O=C(Nc1ccc(Oc2ccnc3[nH]ccc23)c(F)c1)c1cc2cccnc2n(-c2ccc(F)cc2)c1=O,Ratio IC50,Homo sapiens [1],79.3
same,Ratio IC50,Homo sapiens [2],356
same,Ratio IC50,Homo sapiens [3],330
